This assay addresses 5-hydroxytryptamine receptor 2A (Rattus norvegicus, UniProt P14842). Kind of assay: Displacement of [3H]ketanserin from rat 5HT2A receptor expressed in mouse NIH3T3 cells. The assay is classed as cell-based.

Chains of the proteins cited; added tags and fusions are not shown.
UniProt P14842, whole entry: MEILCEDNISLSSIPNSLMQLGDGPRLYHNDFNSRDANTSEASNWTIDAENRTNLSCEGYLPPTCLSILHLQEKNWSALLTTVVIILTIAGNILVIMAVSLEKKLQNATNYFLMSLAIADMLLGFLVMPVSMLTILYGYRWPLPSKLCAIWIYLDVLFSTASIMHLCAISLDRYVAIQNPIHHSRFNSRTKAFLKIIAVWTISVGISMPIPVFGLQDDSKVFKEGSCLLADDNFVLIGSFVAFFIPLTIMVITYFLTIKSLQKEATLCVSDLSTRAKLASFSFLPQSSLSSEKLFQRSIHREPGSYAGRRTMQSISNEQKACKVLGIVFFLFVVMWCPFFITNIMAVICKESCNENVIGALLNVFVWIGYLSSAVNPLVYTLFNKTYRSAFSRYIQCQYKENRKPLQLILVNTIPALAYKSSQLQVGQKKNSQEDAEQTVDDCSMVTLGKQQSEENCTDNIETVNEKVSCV

As a reminder, the Ki is a dissociation constant, usually derived from enzyme kinetics or from competition with a known ligand. The low end stands for higher affinity, the high end for lower affinity.

In turn, `O=C(CCCN1CCC2(CC1)C(=O)NCN2c1ccccc1)c1ccc(F)cc1` [SPIPERONE] gave an inhibition constant (Ki) of 1 nM.

These data come from ChEMBL document CHEMBL1145714, “Activity of Parthenolide at 5HT2A receptors” (J Nat Prod, 1997).
